# Measured affinities in a library of Ab-14 light chain variants

All variants were tested on one target, the spike HR2 peptide PDVDLGDISGINAS (SARS-CoV-2).

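Library AAYL50 holds single substitutions and randomly drawn double and triple substitutions in the CDRs. Affinity was read by AlphaSeq, a pooled yeast mating assay with surface-displayed partners. Mating (16 h, 30 °C) was followed by selection of diploids and sequencing of their barcodes. Scores were corrected for input abundance and mapped to Kd with protein pairs of known affinity run in the same pool. Mating was done three times.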

Parent scFv Ab-14: VH joined to VL by a (GGGGS)3 linker. Changes lie in the light chain CDRs alone.
VH: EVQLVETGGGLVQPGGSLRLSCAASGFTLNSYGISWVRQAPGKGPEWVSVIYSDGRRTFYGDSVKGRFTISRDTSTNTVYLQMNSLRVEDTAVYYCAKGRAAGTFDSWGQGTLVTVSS
VL: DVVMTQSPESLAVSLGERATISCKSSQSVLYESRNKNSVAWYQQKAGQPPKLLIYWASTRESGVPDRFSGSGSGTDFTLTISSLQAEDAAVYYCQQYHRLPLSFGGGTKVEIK

Each variant's VL is given in full. This list gathers variants with a substitution at N37 (VL, numbered from residue 1). Each Kd is an estimate from the mating assay, the geometric mean of the replicates in which the pair was seen; lower is stronger. Where no diploid with the target was found in any replicate, the entry reads "nd": below detection, most likely a poor binder, though not proof of it.

With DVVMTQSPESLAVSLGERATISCKSTQSVLYESRNKVSVAWYQQKAGQPPKLLIYWASTREGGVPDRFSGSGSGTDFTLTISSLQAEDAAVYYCQQYHRLPLSFGGGTKVEIK the result was nd (0 of 3 replicates; controls 1 of 9).
With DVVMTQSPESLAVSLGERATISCKSSQSVLYEWANKESVAWYQQKAGQPPKLLIYWASTRESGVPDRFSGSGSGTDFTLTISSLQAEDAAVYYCQQYHRLPLSFGGGTKVEIK the result was 7.3 nM (3 of 3 replicates; controls 3 of 9).
With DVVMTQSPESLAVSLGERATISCKSSQSRLYESRNKFSVAWYQQKAGQPPKLLIYWASTRESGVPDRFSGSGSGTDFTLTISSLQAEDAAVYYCQQYHRSPLSFGGGTKVEIK the result was nd (0 of 3 replicates; controls 1 of 9).
With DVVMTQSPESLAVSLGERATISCKSSQSVLYESRNKWSVAWYQQKAGQPPKLLIYWASTRESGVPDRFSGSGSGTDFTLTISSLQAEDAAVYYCQQYHRLPLSFGGGTKVEIK the result was 37 nM (3 of 3 replicates; controls 3 of 9).
With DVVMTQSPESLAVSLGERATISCKSSQSVLYESRNKSSVMWYQQKAGQPPKLLIYWASTRESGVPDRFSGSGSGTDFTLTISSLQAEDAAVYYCQQYHRFPLSFGGGTKVEIK the result was 15 µM (2 of 3 replicates; controls 5 of 9).
With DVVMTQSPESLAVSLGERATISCKSSQSVLYESINKPSVAWYQQKAGQPPKLLIYWISTRESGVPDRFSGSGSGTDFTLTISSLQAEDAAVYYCQQYHRLPLSFGGGTKVEIK the result was nd (0 of 3 replicates; controls 0 of 9).
With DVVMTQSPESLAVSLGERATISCQQSQSVLYESRNKISVAWYQQKAGQPPKLLIYWASTRESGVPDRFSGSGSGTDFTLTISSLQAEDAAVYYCQQYHRLPLSFGGGTKVEIK the result was 560 µM (1 of 3 replicates; controls 4 of 9).
With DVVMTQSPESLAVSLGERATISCKSSQSVLYESRNKYSVAWYQQKAGQPPKLLIYWASTSESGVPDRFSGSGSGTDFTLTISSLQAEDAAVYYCQQYHELPLSFGGGTKVEIK the result was nd (0 of 3 replicates; controls 0 of 9).
With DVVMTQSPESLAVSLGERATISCKSSQSCLYESRNKTSVAWYQQKAGQPPKLLIYWASTREGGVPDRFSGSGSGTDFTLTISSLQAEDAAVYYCQQYHRLPLSFGGGTKVEIK the result was 690 nM (1 of 3 replicates; controls 0 of 9).
With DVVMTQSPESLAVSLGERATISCKSSQSVLYESRNKVSVAWYQQKAGQPPKLLIYGASTRESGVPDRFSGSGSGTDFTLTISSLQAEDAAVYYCWQYHRLPLSFGGGTKVEIK the result was 230 µM (1 of 3 replicates; controls 3 of 9).
With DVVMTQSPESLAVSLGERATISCKSSQSVLYESRNKDHVAWYQQKAGQPPKLLIYWASTRESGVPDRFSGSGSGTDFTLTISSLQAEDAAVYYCQQYHRLPLLFGGGTKVEIK the result was 110 nM (3 of 3 replicates; controls 5 of 9).
With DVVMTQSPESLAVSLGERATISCKSLQSVLYEFRNKTSVAWYQQKAGQPPKLLIYWASTRESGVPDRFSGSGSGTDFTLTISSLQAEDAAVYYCQQYHRLPLSFGGGTKVEIK the result was 330 µM (2 of 3 replicates; controls 4 of 9).
With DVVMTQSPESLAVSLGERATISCKSSQSVLYESRNKESVAWYQQKAGQPPKLLIYWASTRPPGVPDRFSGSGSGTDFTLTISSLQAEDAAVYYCQQYHRLPLSFGGGTKVEIK the result was 11 µM (1 of 3 replicates; controls 2 of 9).
With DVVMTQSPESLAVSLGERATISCKSSQSVLYESRNKQSVAWYQQKAGQPPKLLIYWASTRESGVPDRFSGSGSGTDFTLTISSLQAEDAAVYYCQQYDRLPLSFGGGTKVEIK the result was 76 nM (3 of 3 replicates; controls 2 of 9).
With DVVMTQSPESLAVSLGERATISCKSSQSVLYESRNKASVAWYQQKAGQPPKLLIYWASTRESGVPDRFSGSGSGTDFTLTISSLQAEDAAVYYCLQYHRLPLSFGGGTKVEIK the result was 120 nM (3 of 3 replicates; controls 6 of 9).
With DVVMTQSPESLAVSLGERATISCKSSQVVLYESRNKESVAWYQQKAGQPPKLLIYWASTRESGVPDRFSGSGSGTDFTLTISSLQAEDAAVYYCSQYHRLPLSFGGGTKVEIK the result was 19 µM (3 of 3 replicates; controls 2 of 9).
With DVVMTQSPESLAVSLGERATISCKSSQSVLYESRNKMSIAWYQQKAGQPPKLLIYWASTRESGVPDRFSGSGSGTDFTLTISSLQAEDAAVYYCQQYHRLPESFGGGTKVEIK the result was 3.5 µM (1 of 3 replicates; controls 0 of 9).
With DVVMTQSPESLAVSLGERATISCKSNRSVLYESRNKPSVAWYQQKAGQPPKLLIYWASTRESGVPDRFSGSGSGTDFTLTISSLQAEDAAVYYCQQYHRLPLSFGGGTKVEIK the result was 290 nM (3 of 3 replicates; controls 1 of 9).
With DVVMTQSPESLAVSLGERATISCKSSQSGLYESRNKGSVAWYQQKAGQPPKLLIYWPSTRESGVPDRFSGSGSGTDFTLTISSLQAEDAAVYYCQQYHRLPLSFGGGTKVEIK the result was nd (0 of 3 replicates; controls 3 of 9).

A selection of 2 entries from above:

VL	Kd (apparent)	seen in	control signals
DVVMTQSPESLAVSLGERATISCKSSQSVLYESRNKESVAWYQQKAGQPPKLLIYWASTRPPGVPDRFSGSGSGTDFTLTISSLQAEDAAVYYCQQYHRLPLSFGGGTKVEIK	11 µM	1 of 3	2 of 9
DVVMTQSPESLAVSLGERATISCKSSQVVLYESRNKESVAWYQQKAGQPPKLLIYWASTRESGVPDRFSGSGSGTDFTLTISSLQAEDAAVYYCSQYHRLPLSFGGGTKVEIK	19 µM	3 of 3	2 of 9

In this assay the parent's reference entry averaged 4.4 nM; its copy inside this library read 48 nM. As a blank, each scFv also met three strains without target: over library AAYL50, 18% of these pairings were detected, typically at 15 µM and seldom below 970 nM. Also given: how often the same scFv was detected with the empty control strains.

From the AlphaSeq antibody data of Engelhart et al. 2022 (doi:10.1038/s41597-022-01779-4), copy in the FLAb collection.